Test results: US10039753B2, “Imidazo[4,5-c]quinoline and imidazo[4,5-c][1,5]naphthyridine derivatives as LRRK2 inhibitors” (Pfizer Inc., priority 2015, dated 2018)
pIC50: −log10 of the molar value.

Protein sequences, listed by entry. Tags and fused reporters are not part of them. Residues count along the entry.
UniProt Q5S007, 970-2527 G2019S limits assumed: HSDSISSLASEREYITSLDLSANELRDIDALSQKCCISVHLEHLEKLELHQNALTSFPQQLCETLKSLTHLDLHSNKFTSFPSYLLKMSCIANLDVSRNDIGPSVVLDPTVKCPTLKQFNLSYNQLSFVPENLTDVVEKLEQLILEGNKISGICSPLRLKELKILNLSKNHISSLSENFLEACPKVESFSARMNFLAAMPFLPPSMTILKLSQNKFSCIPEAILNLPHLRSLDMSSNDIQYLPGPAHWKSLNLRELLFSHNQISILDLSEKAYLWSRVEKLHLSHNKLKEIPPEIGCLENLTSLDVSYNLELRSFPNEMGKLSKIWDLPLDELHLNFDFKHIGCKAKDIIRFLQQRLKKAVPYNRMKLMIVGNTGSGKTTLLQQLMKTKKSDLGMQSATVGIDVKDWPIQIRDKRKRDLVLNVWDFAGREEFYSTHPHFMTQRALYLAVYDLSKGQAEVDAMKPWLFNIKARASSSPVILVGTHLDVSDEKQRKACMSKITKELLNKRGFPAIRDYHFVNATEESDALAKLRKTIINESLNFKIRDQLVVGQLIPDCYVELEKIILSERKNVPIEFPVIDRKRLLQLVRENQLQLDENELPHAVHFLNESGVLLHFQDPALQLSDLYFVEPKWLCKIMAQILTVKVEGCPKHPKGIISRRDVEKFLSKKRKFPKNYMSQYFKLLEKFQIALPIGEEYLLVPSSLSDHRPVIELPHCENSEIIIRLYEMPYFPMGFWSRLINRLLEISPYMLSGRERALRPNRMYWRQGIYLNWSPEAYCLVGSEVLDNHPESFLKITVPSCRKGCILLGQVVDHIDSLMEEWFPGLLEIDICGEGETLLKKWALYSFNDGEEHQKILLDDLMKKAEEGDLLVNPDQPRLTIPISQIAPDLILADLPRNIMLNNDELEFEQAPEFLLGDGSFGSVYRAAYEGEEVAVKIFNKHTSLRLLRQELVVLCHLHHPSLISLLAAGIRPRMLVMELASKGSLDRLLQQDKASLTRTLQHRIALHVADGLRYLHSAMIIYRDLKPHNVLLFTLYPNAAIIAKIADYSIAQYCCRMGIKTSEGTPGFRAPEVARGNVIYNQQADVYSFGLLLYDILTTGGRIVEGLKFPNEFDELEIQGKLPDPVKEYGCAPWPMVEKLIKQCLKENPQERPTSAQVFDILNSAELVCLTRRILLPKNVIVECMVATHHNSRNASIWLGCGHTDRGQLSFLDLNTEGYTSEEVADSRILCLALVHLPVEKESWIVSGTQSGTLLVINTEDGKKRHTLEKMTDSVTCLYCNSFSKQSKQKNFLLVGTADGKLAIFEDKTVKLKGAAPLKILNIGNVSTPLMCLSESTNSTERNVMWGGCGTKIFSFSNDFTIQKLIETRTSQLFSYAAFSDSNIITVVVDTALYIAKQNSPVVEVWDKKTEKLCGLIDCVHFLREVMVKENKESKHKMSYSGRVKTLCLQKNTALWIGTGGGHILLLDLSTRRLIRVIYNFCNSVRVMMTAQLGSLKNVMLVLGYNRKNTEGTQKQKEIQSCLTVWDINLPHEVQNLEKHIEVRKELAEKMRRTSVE
UniProt Q5S007, 970-2527 limits assumed: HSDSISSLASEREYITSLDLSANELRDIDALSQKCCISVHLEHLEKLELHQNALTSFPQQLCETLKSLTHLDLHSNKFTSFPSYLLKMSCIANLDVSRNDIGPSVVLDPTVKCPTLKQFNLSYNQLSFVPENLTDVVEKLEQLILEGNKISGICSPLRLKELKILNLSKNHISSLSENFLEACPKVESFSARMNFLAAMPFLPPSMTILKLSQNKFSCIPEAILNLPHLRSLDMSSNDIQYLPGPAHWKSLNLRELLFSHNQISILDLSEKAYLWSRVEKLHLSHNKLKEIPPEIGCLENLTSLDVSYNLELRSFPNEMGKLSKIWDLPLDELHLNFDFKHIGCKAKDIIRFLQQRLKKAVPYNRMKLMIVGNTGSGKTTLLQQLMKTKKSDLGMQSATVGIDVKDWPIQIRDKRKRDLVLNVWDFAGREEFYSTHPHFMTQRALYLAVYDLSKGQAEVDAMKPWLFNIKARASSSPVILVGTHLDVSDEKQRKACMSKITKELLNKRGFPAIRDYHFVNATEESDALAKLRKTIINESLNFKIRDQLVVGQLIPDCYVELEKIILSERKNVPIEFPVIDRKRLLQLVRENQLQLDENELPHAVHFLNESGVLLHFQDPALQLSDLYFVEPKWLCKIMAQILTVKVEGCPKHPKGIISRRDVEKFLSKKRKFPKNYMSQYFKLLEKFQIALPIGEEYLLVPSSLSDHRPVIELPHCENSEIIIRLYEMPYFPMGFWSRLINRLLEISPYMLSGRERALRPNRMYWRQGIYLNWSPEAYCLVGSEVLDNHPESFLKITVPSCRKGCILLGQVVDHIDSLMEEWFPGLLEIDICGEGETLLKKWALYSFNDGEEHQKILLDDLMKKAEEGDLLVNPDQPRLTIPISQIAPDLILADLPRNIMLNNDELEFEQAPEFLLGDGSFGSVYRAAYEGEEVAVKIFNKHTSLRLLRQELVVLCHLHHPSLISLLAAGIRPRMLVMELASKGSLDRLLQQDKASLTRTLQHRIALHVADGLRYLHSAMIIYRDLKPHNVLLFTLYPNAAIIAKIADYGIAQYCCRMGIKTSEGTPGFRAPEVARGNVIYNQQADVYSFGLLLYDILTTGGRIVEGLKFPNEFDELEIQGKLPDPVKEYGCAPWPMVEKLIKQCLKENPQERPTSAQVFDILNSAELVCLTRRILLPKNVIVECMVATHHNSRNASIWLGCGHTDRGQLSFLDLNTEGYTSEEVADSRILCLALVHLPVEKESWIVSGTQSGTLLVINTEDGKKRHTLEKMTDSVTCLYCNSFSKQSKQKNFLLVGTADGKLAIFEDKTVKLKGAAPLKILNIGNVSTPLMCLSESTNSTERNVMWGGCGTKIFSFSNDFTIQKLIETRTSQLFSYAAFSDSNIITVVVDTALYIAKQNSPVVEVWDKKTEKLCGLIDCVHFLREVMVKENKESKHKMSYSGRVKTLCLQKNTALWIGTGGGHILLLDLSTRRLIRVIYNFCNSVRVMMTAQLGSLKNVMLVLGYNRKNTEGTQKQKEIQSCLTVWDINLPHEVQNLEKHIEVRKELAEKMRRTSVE

How the values were obtained:
Type in all cases: biochemical
mutant G2019S LRRK2 = mutant G2019S LRRK2 (Homo sapiens, UniProt Q5S007, G2019S); assay: LRRK2 Assay, Format 2 (Lantha Screen), G2019S mutant; parameters: purchased Invitrogen PV4881; settings: geometric mean of 2-4 determinations unless otherwise indicated (a: >=5; b: single determination)
Experimental: (§1) LRRK2 kinase activity was measured using Lantha Screen technology from Invitrogen. GST-tagged truncated LRRK2 from Invitrogen (Cat # PV4874) was incubated with a fluorescein-labeled peptide substrate based upon ezrin/radixin/moesin (ERM), also known as LRRKtide (Invitrogen cat # PR8976A), in the presence of a dose response of compound. Upon completion, the assay was stopped and detected with a terbium labeled anti-phospho-ERM antibody (Invitrogen, cat # PR8975A). […] Using Echo acoustic dispensing, 60 nL of compound was transferred to a low volume Corning 384-well assay plate. 3 μL of a working solution of substrate (200 nM LRRKtide, […]) prepared in assay buffer (50 mM HEPES, pH 7.5, 3 mM MgCl2, with 2 mM DTT and 0.01% Brij35 added fresh) was added to the 60 nL compound assay plate. The kinase reaction was started with […] of a working solution of LRRK2 enzyme at a concentration of […]. The final reaction concentrations were 100 nM LRRKtide, […], […] LRRK2 enzyme and a compound dose response with a top dose of 3 mM. The reaction was allowed to progress at room temperature for 30 minutes and then stopped with the addition of […] of detection buffer (20 mM Tris pH 7.6, 0.01% NP-40, 6 mM EDTA with 2 nM terbium labeled anti-phospho-ERM). After an incubation of 1 hour at room temperature, the plate was read on an Envision with an excitation wavelength of 340 nm and a reading emission at both 520 nm and 495 nm. The ratio of the 520 nm and 495 nm emission was used to analyze the data. Inhibition of mutant G2019S LRRK2 (Invitrogen cat # PV4881) was measured in the exact same method. All final concentrations of substrate ATP and enzyme were the same.

[1] = molecular target: T1, GST-tagged truncated LRRK2 (Homo sapiens, UniProt Q5S007); assay: LRRK2 Assay, Format 2 (Lantha Screen), WT; settings: geometric mean of 2-4 determinations unless otherwise indicated (a: >=5; b: single determination)
T1 construct: GST-tagged truncated LRRK2 from Invitrogen (Cat # PV4874); GST; purchased Invitrogen PV4874
Experimental: as §1

[2] = tested on: kinase selectivity mini-panel; assay: Kinase selectivity (mini-panel), further assay run, Table 5A; settings: 1 mM ATP, 1 μM drug concentration
Experimental: The compounds were run using a commercially available kinase selectivity assay which is available from CarnaBio USA, Inc. 209 West Central St., Suite 307, Natick, Mass. 01760 USA. The compounds of Examples 3, 4, 5 and 22 were run in the assay at a concentration of 1 μM using an ATP concentration of 1 mM. Table 5A below provides kinase selectivity from a further assay run for the compounds of Examples 4, 11, 5, 104, 102 and 116.

Work on `Cc1cnc(Cc2nc3cnc4ccc(C#N)cc4c3n2[C@@H]2CC[C@H](F)C2)cn1` (single isomer, unassigned; ent-1) [Example 109, 1-(cis-3-Fluorocyclopentyl)-2-[(5-methylpyrazin-2-yl)methyl]-1H-imidazo[4,5-c]quinoline-8-carbonitrile, ENT-1] yielded a pIC50 (mutant G2019S LRRK2) of 8.15 and a pIC50 [1] of 8.28.

Work on `Cc1cc(Cc2nc3cnc4ccc(C#N)cc4c3n2C2CCCCC2(F)F)no1` (single isomer, unassigned; ent-1) [Example 111, 1-(2,2-Difluorocyclohexyl)-2-[(5-methyl-1,2-oxazol-3-yl)methyl]-1H-imidazo[4,5-c]quinoline-8-carbonitrile, ENT-1] yielded a pIC50 (mutant G2019S LRRK2) of 7.91 and a pIC50 [1] of 8.03.

In the case of `Cc1cn(Cc2nc3cnc4ccc(C#N)cc4c3n2[C@@H]2CC[C@H](F)C2)nn1` (single isomer, unassigned; ent-2) [Example 101, 1-(cis-3-Fluorocyclopentyl)-2-[(4-methyl-1H-1,2,3-triazol-1-yl)methyl]-1H-imidazo[4,5-c]quinoline-8-carbonitrile, ENT-2], the pIC50 (mutant G2019S LRRK2) was 8.06 and the pIC50 [1] was 8.31.

With `Cc1cc(Cc2nc3cnc4ccc(Cl)cc4c3n2[C@@H]2CCO[C@H](C)C2)ncn1` [Example 102, 8-Chloro-2-[(6-methylpyrimidin-4-yl)methyl]-1-[(2R,4R)-2-methyltetrahydro-2H-pyran-4-yl]-1H-imidazo[4,5-c]quinoline] the pIC50 (mutant G2019S LRRK2) was 8.15, the “percent inhibition of ABL” value ([2]; kinase ABL) was 1.95% and the “percent inhibition of AKT” value ([2]; kinase AKT) was 4.16%. The “percent inhibition of AURA” value ([2]; kinase AURA) was 11.07%, the “percent inhibition of BTK” value ([2]; kinase BTK) was −2.03% and the “percent inhibition of CDK2_CyclinA” value ([2]; kinase CDK2_CyclinA) was 7.12%. For the same molecule, the “percent inhibition of CHK1” value ([2]; kinase CHK1) was 7.04%, the “percent inhibition of CHK2” value ([2]; kinase CHK2) was 0.5% and the “percent inhibition of CKIIa′” value ([2]; kinase CKIIa′) was 2.15%. The “percent inhibition of CKIa” value ([2]; kinase CKIa) was 4.89%, the “percent inhibition of CaMKIIa” value ([2]; kinase CaMKIIa) was 7.95% and the “percent inhibition of EGFR” value ([2]; kinase EGFR) was 0.11%. The “percent inhibition of ERK2” value ([2]; kinase ERK2) was 3.64%, the “percent inhibition of EphA2” value ([2]; kinase EphA2) was 2.2% and the “percent inhibition of FGFR1” value ([2]; kinase FGFR1) was 34.71%. For the same molecule, the “percent inhibition of GSK3b” value ([2]; kinase GSK3b) was 2.8%, the “percent inhibition of HGFR” value ([2]; kinase HGFR) was 3.61% and the “percent inhibition of IRAK4” value ([2]; kinase IRAK4) was 8.34%. The “percent inhibition of IRK” value ([2]; kinase IRK) was 2.41%, the “percent inhibition of JAK3” value ([2]; kinase JAK3) was 50.75% and the “percent inhibition of KDR (VEGF)” value ([2]; kinase KDR (VEGF)) was 51.75%. The “percent inhibition of LCK” value ([2]; kinase LCK) was 18.64%, the “percent inhibition of MARK1” value ([2]; kinase MARK1) was 6.6% and the “percent inhibition of MK2” value ([2]; kinase MK2) was 1.54%. The “percent inhibition of MLCK_sk” value ([2]; kinase MLCK_sk) was 0.92%, the “percent inhibition of MST2” value ([2]; kinase MST2) was 51.42% and the “percent inhibition of MST4” value ([2]; kinase MST4) was 4.8%. The “percent inhibition of PAK4” value ([2]; kinase PAK4) was 4.83%, the “percent inhibition of PDK1” value ([2]; kinase PDK1) was 8.36% and the “percent inhibition of PIM2” value ([2]; kinase PIM2) was 5.55%. For the same molecule, the “percent inhibition of PKACa” value ([2]; kinase PKACa) was 0.21%, the “percent inhibition of PRKCB2” value ([2]; kinase PRKCB2) was 10.52% and the “percent inhibition of ROCKI” value ([2]; kinase ROCKI) was −0.87%. For the same molecule, the “percent inhibition of SGK” value ([2]; kinase SGK) was 7.15%, the “percent inhibition of SRC” value ([2]; kinase SRC) was 5.87% and the “percent inhibition of TAO2” value ([2]; kinase TAO2) was 2.75%. The “percent inhibition of TIE2” value ([2]; kinase TIE2) was 2.01%, the “percent inhibition of TRKA” value ([2]; kinase TRKA) was 58.72% and the “percent inhibition of ZC1 (HGK)” value ([2]; kinase ZC1 (HGK)) was 3.72%. The “percent inhibition of p38” value ([2]; kinase p38) was 3.32% and the pIC50 [1] was 8.22.

Molecule `C[C@@H]1C[C@H](n2c(Cc3cnc(C(F)(F)F)cn3)nc3cnc4ccc(Cl)cc4c32)CCO1` [Example 105, 8-Chloro-1-[(2R,4R)-2-methyltetrahydro-2H-pyran-4-yl]-2-{[5-(trifluoromethyl)pyrazin-2-yl]methyl}-1H-imidazo[4,5-c]quinoline] has a pIC50 (mutant G2019S LRRK2) of 7.97 and a pIC50 [1] of 7.99.

`Cc1cnc(Cc2nc3cnc4ccc(C#N)cc4c3n2[C@@H]2CCO[C@H](C)C2)cn1` [Example 108, 2-[(5-Methylpyrazin-2-yl)methyl]-1-[(2R,4R)-2-methyltetrahydro-2H-pyran-4-yl]-1H-imidazo[4,5-c]quinoline-8-carbonitrile] showed a pIC50 (mutant G2019S LRRK2) of 8.08 and a pIC50 [1] of 8.02.

`COc1cnn(Cc2nc3cnc4ccc(Cl)cc4c3n2[C@@H]2CCO[C@H](C)C2)c1` [Example 110, 8-chloro-2-[(4-methoxy-1H-pyrazol-1-yl)methyl]-1-[(2R,4R)-2-methyltetrahydro-2H-pyran-4-yl]-1H-imidazo[4,5-c]quinoline] gave a pIC50 (mutant G2019S LRRK2) of 8.19 and a pIC50 [1] of 8.15.

`Cc1nc(Cc2nc3cnc4ccc(C#N)cc4c3n2[C@@H]2CCN(C)C2)no1` [Example 112, 2-[(5-Methyl-1,2,4-oxadiazol-3-yl)methyl]-1-[(3R)-1-methylpyrrolidin-3-yl]-1H-imidazo[4,5-c]quinoline-8-carbonitrile] gave a pIC50 (mutant G2019S LRRK2) of 7.83 and a pIC50 [1] of 8.04.

`CN1CC[C@@H](n2c(Cc3cnccn3)nc3cnc4ccc(C#N)cc4c32)C1` [Example 113, 1-[(3R)-1-Methylpyrrolidin-3-yl]-2-(pyrazin-2-ylmethyl)-1H-imidazo[4,5-c]quinoline-8-carbonitrile] showed a pIC50 (mutant G2019S LRRK2) of 8.01 and a pIC50 [1] of 8.19.

Molecule `Cc1nc(Cc2nc3cnc4ccc(C(F)(F)F)cc4c3n2[C@@H]2CCO[C@H](C)C2)no1` [Example 114, 2-[(5-Methyl-1,2,4-oxadiazol-3-yl)methyl]-1-[(2R,4R)-2-methyltetrahydro-2H-pyran-4-yl]-8-(trifluoromethyl)-1H-imidazo[4,5-c]quinoline] has a pIC50 (mutant G2019S LRRK2) of 8.67 and a pIC50 [1] of 8.48.

`Cc1cc(Cc2nc3cnc4ccc(Cl)cc4c3n2[C@@H]2CCO[C@H](C)C2)on1` [Example 115, 8-Chloro-2-[(3-methyl-1,2-oxazol-5-yl)methyl]-1-[(2R,4R)-2-methyltetrahydro-2H-pyran-4-yl]-1H-imidazo[4,5-c]quinoline] showed a pIC50 (mutant G2019S LRRK2) of 8.22 and a pIC50 [1] of 8.34.
